This note sets out measurements from patent US20240310365A1, “DEVICE FOR EVALUATING INNER EAR DRUG DELIVERY” (North Carolina State University, priority 2023, published 2024).

The subject of this series is porcine RWM. The series is described as follows: Ex-vivo porcine RWM device permeability measurement. Type of series: in vitro ADME.

As to dexamethasone fluorescein [DexF], the “passage through the RWM (comparison in words)” value (healthy explants) was “less efficiently than Dex”. Further, the “passage through lowered metabolic activity and leaky membranes (comparison in words)” value (versus healthy and non-leaky explants) is “higher than healthy and non-leaky explants”.
